Test results reported in patent publication US7432257B2, “Piperdinyl-phenoxazine and phenothiazine derivatives as δ-opioid modulators” (dated 2008).

Biological target: delta opioid receptor (NG108-15 cell membranes) (Mus musculus, UniProt P32300)
Assay: [35S]GTPγS Binding Assay in NG108-15 Cell Membranes (Delta Opioid)
Settings: relative efficacy

NC(=O)c1ccc2c(c1)Oc1ccccc1N2C1CCNCC1
delta GTPγS Rel Eff: 0.81

N#Cc1ccc2c(c1)Oc1ccccc1N2C1CCNCC1
delta GTPγS Rel Eff: 0.45
